This is a sample that favours compounds with a hit; in the whole collection about 2.3% have one here.
miR-21 reporter: miR-21 reporter, rising signal | Potency, µM (highest dose often 38.3 µM), for inactives: at the highest dose reporter change, positive = more light | 340,000 tested, under 10 active | HeLa miR-21 FLuc reporter, luciferase, 48 h; active = well fitted rising curve with a large enough effect; inconclusive = small, poorly fitted or top-dose-only effect; inactive = no such curve, though single readings can be large or run the other way;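 note: % of control where 0% means no effect; miR-21 action dims this reporter so a rising signal means less miR-21 action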
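Compounds were titrated across several concentrations (up to approximately 40 uM) and incubated 48 hours with HeLa miR-21-FLuc reporter cells (miR-21 target sequence downstream of FLuc, endogenous miR-21). Readout was firefly luciferase luminescence after lytic detection reagent.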
Mito fusion yeast: inhibitors of mitochondrial division or activators of mitochondrial fusion | S. cerevisiae fusion-defective mutant growth rescue, CellTiterGlo 48 h | Potency, µM (series often up to 46.1 µM), for the others: at the top dose growth rescue (activation), usual class: activators | hit rate 0.23% among 320,000 | AID 485298; also: potency is read from the fitted curve at half-maximal effect; % of control where 0% means no effect; nearly all actives have a fitted effect of over 45% in size
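Yeast fusion mutant, YPEG (non-fermentable carbon), compound, 48 h at 37C non-permissive; CellTiterGlo added, 10 min RT, luminescence read. Rescued growth = division inhibition.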
Nrf2 inh: blocks Nrf2 signaling. hit rate 2.1% among 360,000. Potency, µM (series often up to 46 µM), inactives show at the highest dose activity change, negative = inhibition, actives largely listed as inhibitors. A549 ARE-Fluc reporter, luciferase luminescence, 18-24 h. AID 504444; also: potency is read from the fitted curve at half-maximal effect; % is scaled to controls: 0 for no effect and ±100 for the full control effect; nearly all actives have a fitted effect of over 60% in size
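Cells were seeded and rested 2 h, then exposed to compounds for 18-24 h. CellTiter-Fluor was read first as a viability measure. BugLite was added 15 min before the final luminescent read of ARE-luciferase activity in A549 cells.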
GRP78 ERSR act: ER stress response induction in glioma | U87-MG GRP78 promoter luciferase reporter, 16 h | Potency, µM, for the others: top-dose activation, actives largely listed as activators | hit rate 0.02% among 420,000 | AID 602332; also: potency is read from the fitted curve at half-maximal effect; series mostly up to about 76 µM; % of control where 0% means no effect; nearly all actives have a fitted effect of over 35% in size
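ERSR induction read as luciferase luminescence (Bright-Glo, 10 min at room temperature) in stably transfected human U87-MG glioma cells exposed to compounds for 16 h, using GRP78 as sensor.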
A549 tox: A549 cytotoxicity, counter-screen for Nrf2 inhibitors. A549 ARE-Fluc cells, CellTiter-Fluor viability, 18-24 h. Potency, µM (top dose mostly 46 µM), without a hit: at the top dose activity change, negative = cytotoxicity, hits mostly inhibitors. hit rate 0.16% among 390,000. AID 504648; also: potency is read from the fitted curve at half-maximal effect; % is scaled to controls: 0 for no effect and ±100 for the full control effect
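A549 ARE-Fluc cells in 5% FBS OPTI-MEM, 5000 cells/well, rested 2 h then exposed to compounds in concentration-response for 18-24 h at 37 °C. Viability by CellTiter-Fluor fluorescence (Ex 405/Em 525) after 30 min; luciferase luminescence (BugLite, 15 min, RT) read afterwards.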
Nrf2 activator: Nrf2 pathway activation; AREc32 ARE-luciferase reporter (MCF7-derived line), luminescence, 24 h; Potency, µM (series often up to 46.1 µM), for inactives: at the highest dose activation, most hits filed as activators; hit rate 0.31% among 410,000; also: potency is read from the fitted curve at half-maximal effect; % of control where 0% means no effect; nearly all actives have a fitted effect of over 65% in size
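Luminescent ARE reporter assay in AREc32_Fluc cells: overnight plating at 37 deg C, 24 hr compound incubation, Steady-Glo added, 30 min RT before reading.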
Starred values were filed as active, the others as inactive; ? = inconclusive; . = no result. Calls follow the shape of the dose curve; as a rule, active = well fitted curve in the direction sought with a large enough effect; inconclusive = small, poorly fitted or top-dose-only effect, or another doubt; inactive = no such curve, though single readings can be large; an effect the other way counts as inactive or inconclusive.

Short forms – A = miR-21 reporter; B = Mito fusion yeast; C = Nrf2 inh; D = GRP78 ERSR act; E = A549 tox; F = Nrf2 activator
> Cc1ccc(C)c(N2CCN(S(=O)(=O)c3c(C)noc3C)CC2)c1
  A: 0.0%	B: ?	C: -19.2%	D: -1.8%	E: 9.2%	F: -0.2%
> Cc1ccc(Cl)cc1N1CCN(c2ncnc3onc(C)c23)CC1
  A: ?	B: .	C: 20.6µM*	D: -5.4%	E: -19.4%	F: 0.4%
> Cc1ccc(NC(=O)C2CCCN(c3ncnc4onc(C)c34)C2)cc1Cl (stereo not drawn)
  A: 0.4%	B: .	C: 13µM*	D: -4.2%	E: ?	F: 2.3%
> Cc1onc(-c2ccccc2Cl)c1C(=O)NCc1ccc(F)cc1
  A: -5.9%	B: -0.8%	C: 1.5%	D: -4.7%	E: 5.7%	F: -0.8%
> Cc1cc(-c2nc3ncccc3o2)ccc1NC(=O)COc1ccc(C(C)(C)C)cc1
  A: -16.4%	B: .	C: ?	D: 1.4%	E: -4.1%	F: 0.6%
> CN(C(=O)COc1ccccc1C(=O)NCCOc1ccccc1)c1ccccc1
  A: ?	B: 15.8%	C: 14.6µM*	D: -9.5%	E: ?	F: -2.5%
> Cc1ccc2ncnc(Oc3ncccc3NC(=O)C(C)(C)C)c2c1
  A: 0.7%	B: -0.4%	C: -2.7%	D: 2.1%	E: -5.5%	F: 1.5%
> Cc1ccc(-n2c(C)cc(C(=O)COc3cccnc3[N+](=O)[O-])c2C)cc1
  A: -20.6%	B: -4.5%	C: 3.26µM*	D: -6.9%	E: -22.1%	F: -0.4%
> Cc1cc(C(=O)COc2cccnc2[N+](=O)[O-])c(C)n1-c1ccccc1
  A: -15.8%	B: 1.9%	C: 2.91µM*	D: -10.3%	E: -9.7%	F: -2.4%
> Cc1[nH][nH]c(=O)c1C(c1ccc([N+](=O)[O-])cc1)c1c(C)[nH][nH]c1=O
  A: 6.4%	B: -4.6%	C: 2.6%	D: -1.5%	E: 11.1%	F: 0.0%
> Cc1ccc(Cl)cc1NC(=S)N(Cc1cccnc1)Cc1ccccc1Cl
  A: 17.5%	B: -2.8%	C: ?	D: -3.0%	E: -0.6%	F: -0.2%
> Cc1cccc(NC(=O)CCc2c(C)nn(-c3ccc(N4CCCCC4)nn3)c2C)c1
  A: -2.3%	B: 11.1%	C: 0.7%	D: 0.1%	E: -2.4%	F: 7.3%
> O=C(N=Nc1c(O)[nH]c2ccc(Br)cc12)c1ccco1
  A: .	B: .	C: .	D: 2.6%	E: .	F: 5.01µM*
> O=C(N=Nc1c(O)[nH]c2ccc(Br)cc12)c1ccccc1-n1cccc1
  A: 20.4%	B: ?	C: ?	D: -7.1%	E: ?	F: 6.5%
> Nc1ccc(C(=O)c2cccs2)cn1
  A: -15.2%	B: 1.4%	C: ?	D: 1.9%	E: 7.4%	F: ?
> Nc1ccc(-c2cnc(N)c(C(=O)c3cccnc3)n2)cn1
  A: .	B: .	C: 14.6µM*	D: -3.7%	E: ?	F: -4.0%
> CCCC(O)(CCN1CCOCC1)c1ccc(Br)cc1 (stereo not drawn)
  A: -3.8%	B: -6.5%	C: 6.6%	D: 1.4%	E: -4.6%	F: 0.4%
> CCN(CC)S(=O)(=O)c1cnccc1N1CCN(c2cccc(Cl)c2)CC1
  A: 0.3%	B: 12.6µM*	C: ?	D: -6.1%	E: ?	F: -0.3%
> CCSc1ncc(Cl)c(C(=O)N(Cc2ccccc2)Cc2ccco2)n1
  A: ?	B: .	C: ?	D: .	E: -0.2%	F: 0.4%
> CCCSc1ncc(Cl)c(C(=O)N(Cc2ccc(Cl)cc2)Cc2ccco2)n1
  A: 16.6%	B: .	C: 20.6µM*	D: .	E: -5.1%	F: 4.7%

The list goes on; it opens with the five that closed the last part.
Results follow in this order: miR-21 reporter	Mito fusion yeast	Nrf2 inh	GRP78 ERSR act	A549 tox	Nrf2 activator
Nc1ccc(-c2cnc(N)c(C(=O)c3cccnc3)n2)cn1
    .	.	14.6µM*	-3.7%	?	-4.0%
CCCC(O)(CCN1CCOCC1)c1ccc(Br)cc1 (stereo not drawn)
    -3.8%	-6.5%	6.6%	1.4%	-4.6%	0.4%
CCN(CC)S(=O)(=O)c1cnccc1N1CCN(c2cccc(Cl)c2)CC1
    0.3%	12.6µM*	?	-6.1%	?	-0.3%
CCSc1ncc(Cl)c(C(=O)N(Cc2ccccc2)Cc2ccco2)n1
    ?	.	?	.	-0.2%	0.4%
CCCSc1ncc(Cl)c(C(=O)N(Cc2ccc(Cl)cc2)Cc2ccco2)n1
    16.6%	.	20.6µM*	.	-5.1%	4.7%
CCCS(=O)(=O)c1ncc(Cl)c(C(=O)N(Cc2ccccc2)Cc2ccco2)n1
    ?	.	16.4µM*	-10.8%	?	?
Cc1ccc2nc(-c3ccc(O)cc3)oc2c1
    14.8%	-2.4%	6.51µM*	-6.3%	0.6%	-0.1%
Cc1ccc2nc(-c3cccc(-c4nc5ccc(C)cc5o4)n3)oc2c1
    .	.	5.0%	-3.2%	-1.4%	.
CN=Cc1nc(-c2ccccc2)oc1O
    -46.3%	2.3%	?	-0.4%	?	0.2%
O=C(O)c1ccc(N=Cc2nc(-c3ccco3)oc2O)cc1
    -0.5%	-3.4%	-14.8%	0.7%	-2.5%	-0.3%
Cc1ccc(-c2nc(C=Nc3ccc(O)cc3)c(O)o2)cc1
    3.0%	-1.9%	15.9%	8.9%	?	6.31µM*
Oc1oc(-c2ccco2)nc1C=Nc1ccccc1
    -9.0%	3.5%	1.4%	2.8%	-2.3%	12.6µM*
COC(=O)N1CCCc2cc(S(=O)(=O)NCc3ccccc3)ccc21
    3.0%	.	23.1µM*	-5.5%	-8.5%	2.9%
C/C(=N\NC(=O)c1ccccn1)c1ccc(Cl)cc1
    -35.7%	0.3%	9.9%	-6.5%	0.1%	0.4%
COc1cc(C(=O)N/N=C(\c2ccccc2)c2ccccn2)cc(OC)c1OC
    27.1%	0.2%	4.61µM*	-2.0%	?	-0.2%
COc1ccc(C(=O)N/N=C(\Cc2ncc[nH]2)c2ccccc2)cc1
    -5.7%	3.2%	?	-0.3%	-8.3%	-0.4%
C/C(=N\NC(=O)c1ccc(Cl)cc1)c1ccccn1
    -13.8%	-15.0%	3.66µM*	-9.4%	?	?
COc1cc(C(=O)N/N=C(\Cc2ncc[nH]2)c2ccccc2)cc(OC)c1OC
    22.2%	-0.9%	14.6µM*	-4.9%	?	-0.3%
COc1ccc(Cc2n[nH]c(=S)n2N)cc1OC
    -10.9%	-1.1%	-28.4%	-6.2%	0.1%	1.9%
COc1cc2c(cc1OC)C1(Nc3c-2c(Cc2ccccc2)nn3-c2ccccc2)C(=O)Nc2ccccc21 (stereo not drawn)
    -13.8%	0.4%	11.6µM*	-3.3%	?	-0.1%
C[C@H](O)[C@@H]1C(=O)N2CCc3ccc(-c4cccc(F)c4)cc3[C@@H]2C[C@@H]1N(C)S(=O)(=O)c1ccccc1
    .	.	?	-2.3%	-14.3%	11.1%
CCn1c(N2CCN(C(=S)Nc3ccc(OC)cc3)CC2)nc2ccccc21
    0.1%	-9.3%	16.4µM*	1.2%	-9.3%	2.7%
COC(=O)c1cc(OC)c(OC)cc1NC(=O)CC1CCCCC1
    -3.9%	19.0%	?	-1.5%	-19.5%	-0.2%
CCCN(CC(=O)Nc1ccc(Cl)cc1Cl)C(=O)/C=C/c1ccco1
    -13.5%	1.4%	11.6%	5.8%	-3.6%	11.2µM*
Cc1ccc(CC2C(=O)N(CC(=O)O)C(=O)C2C)cc1 (stereo not drawn)
    -6.4%	1.0%	0.5%	-2.9%	-1.4%	-0.3%
Cc1ccccc1OCCn1cnc2c(N)ncnc21
    -54.8%	0.0%	-21.3%	-5.3%	-1.4%	5.0%
COc1cccc(NC(=O)N[C@@H](Cc2ccccc2)C(=O)O)c1
    -14.5%	-1.4%	-13.2%	0.2%	-5.2%	-0.2%
Cc1c(CCC(=O)O)c(=O)oc2cc3occ(-c4ccc(F)cc4)c3cc12
    -6.9%	19.8%	4.3%	?	4.0%	3.5%
Cc1c(CCC(=O)O)c(=O)oc2cc3occ(C(C)(C)C)c3cc12
    -30.7%	11.6%	18.4µM*	-1.5%	-1.3%	4.5%
CC1CN(S(=O)(=O)c2cc(C(=O)N(CCc3ccccc3)Cc3ccccc3)ccc2Cl)CC(C)O1 (stereo not drawn)
    .	18.2%	7.31µM*	-2.4%	-12.1%	-0.1%
Cc1ccc(C(=O)N(CCc2ccccc2)Cc2ccccc2)cc1S(=O)(=O)N1CCOCC1
    .	.	?	-4.0%	-3.7%	-0.4%

Screening data (PubChem BioAssay)
